In this assay the target is PEG-3 (UniProt Q6IN02). Put plainly: inhibition of PEG-3 promoter-driven reporter – cell-based, HeLa, luciferase, CREF/GAPDH counter-screen panel, dose response (AID 624167). The following applies: HeLa PEG-Prom luciferase reporter, overnight, CREF/GAPDH counter-screens; run 1, dose range 1, at 100 µM (top of the series). Background: The purpose of a counterscreen is to sort out artefacts and off-target activity.

Sequences of proteins named here, by UniProt entry; tags and fusion partners are left off.
UniProt Q6IN02, whole entry, looked up: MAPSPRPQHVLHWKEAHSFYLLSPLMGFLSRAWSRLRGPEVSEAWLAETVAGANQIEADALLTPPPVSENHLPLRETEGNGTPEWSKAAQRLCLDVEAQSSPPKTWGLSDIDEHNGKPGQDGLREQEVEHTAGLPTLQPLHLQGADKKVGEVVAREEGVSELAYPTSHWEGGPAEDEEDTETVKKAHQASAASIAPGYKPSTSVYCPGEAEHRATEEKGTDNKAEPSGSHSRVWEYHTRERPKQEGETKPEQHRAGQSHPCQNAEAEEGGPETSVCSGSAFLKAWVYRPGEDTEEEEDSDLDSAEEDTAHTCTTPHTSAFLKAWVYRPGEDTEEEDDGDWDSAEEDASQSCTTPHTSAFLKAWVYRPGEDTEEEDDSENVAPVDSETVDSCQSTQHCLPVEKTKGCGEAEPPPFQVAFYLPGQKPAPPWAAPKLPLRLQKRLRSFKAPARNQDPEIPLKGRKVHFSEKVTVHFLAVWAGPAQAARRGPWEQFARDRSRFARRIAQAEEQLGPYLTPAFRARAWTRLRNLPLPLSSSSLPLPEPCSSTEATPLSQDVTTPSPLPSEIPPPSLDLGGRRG

The structures appear in SMILES notation. This is a selection; strong and weak results do not stand in their true shares.

As for `CCCCn1nnnc1C(c1cccs1)N1CCC(n2c(=O)[nH]c3ccccc32)CC1` (configuration not stated), the inhibition was determined as 102%.

`O=c1[nH]c2ccccc2n1C1CCN(C(c2cccc3ccccc23)c2nnnn2C2CCCC2)CC1` (configuration not stated): the inhibition stood at 34.9%.

In general, inhibition refers to the relative decrease from the control value, in per cent.
